# ClpP mod – qHTS Assay for Activators of ClpP; purified B. subtilis ClpP, FRET peptide cleavage, 20 min; AID 651965, 2013; Potency, µM (series often up to 57.5 µM), for the others: top-dose activity change, negative = active; actives 1.9% (n = 340,000); active means well fitted falling curve with a large enough effect; inconclusive means small, poorly fitted or top-dose-only effect; inactive means no such curve, though single readings can be large or run the other way; further: potency means the concentration at half of the fitted maximal effect; the source files actives as falling curves though it sought activators and does not explain the sign; nearly all actives have a fitted effect of over 65% in size
#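 Purified B. subtilis ClpP, 10 microg/mL final in Tris/HCl pH8 with KCl, BSA, glycerol and Tween-20, cleaved an Abz/nitrotyrosine-quenched decapeptide. Fluorescence (ex 320, em 430) was read at 0 and 20 min at room temperature. Delta was normalized to 5.8 microM ADEP and DMSO/no-enzyme controls.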
# A549 viability – kills or reduces viability of A549 cells in Nrf2 counter-screen; Potency, µM (highest dose often 46 µM), inactives show at the highest dose activity change, negative = cytotoxicity, actives largely listed as inhibitors; actives 0.16% (n = 390,000); A549 ARE-Fluc cells, CellTiter-Fluor viability, 18-24 h; further: potency means the concentration at half of the fitted maximal effect; on the % scale 0 is the no-effect control and ±100 the full control effect
#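 A549 ARE_Fluc cells in 5% FBS OPTI-MEM were exposed to compounds in concentration-response for 18-24 h at 37 deg C. Viability was read by CellTiter-Fluor fluorescence (Ex 405/Em 525) after 30 min, before the luciferase read.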
# Nrf2 block – Nrf2 pathway inhibition | Potency, µM (titrated, usually from 46 µM), for inactives: at the top dose activity change, negative = inhibition, hits mostly inhibitors | A549 ARE-Fluc reporter, luciferase luminescence, 18-24 h | actives 2.1% (n = 360,000); further: potency means the concentration at half of the fitted maximal effect; on the % scale 0 is the no-effect control and ±100 the full control effect; nearly all actives have a fitted effect of over 60% in size
#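 Nrf2 function is reported as luminescence of an ARE-controlled luciferase in A549 cells. Compounds were tested at several concentrations, and a CellTiter-Fluor read on the same wells flagged cytotoxicity.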
# Nrf2 activator – Nrf2 pathway activation; AREc32 ARE-luciferase reporter (MCF7-derived line), luminescence, 24 h; Potency, µM (titrated, usually from 46.1 µM), for inactives: at the highest dose activation, hits mostly activators; actives 0.31% (n = 410,000); AID 624171; further: potency means the concentration at half of the fitted maximal effect; % of control where 0% means no effect; nearly all actives have a fitted effect of over 65% in size
#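 AREc32_Fluc, 1000 cells/well, OPTI-MEM + 5% FBS, o/n 37 deg C 5% CO2; 23 nL cpd by pin tool, 24 hr; Steady-Glo 30 min RT, luminescence.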
# p53 reactivator – restores transcriptional activity of mutant p53. AID 504706. actives 0.063% (n = 320,000). H1299 p53-A138V BP100-luciferase reporter, luminescence, 24 h. Potency, µM (series often up to 92.2 µM), inactives show at the top dose activity change, positive = activation, actives largely listed as activators; further: potency means the concentration at half of the fitted maximal effect; % of control where 0% means no effect; nearly all actives have a fitted effect of over 45% in size
#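 H1299 (p53-null), stable ts p53-A138V + BP100-Luc; 1000 cells/well, Opti-MEM/10% FBS; cpd 4 pt, 1:5; 24 h, 37 deg C, 5% CO2; detection reagent 10 min RT; luminescence.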
# miR-21 reporter – raises the signal of a miR-21 reporter | HeLa miR-21 FLuc reporter, luciferase, 48 h | Potency, µM (highest dose often 38.3 µM), inactives show at the highest dose reporter change, positive = more light | 340,000 tested, under 10 active | AID 2288; active = well fitted rising curve with a large enough effect; inconclusive = small, poorly fitted or top-dose-only effect; inactive = no such curve, though single readings can be large or run the other way;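 note: % of control where 0% means no effect; miR-21 action dims this reporter so a rising signal means less miR-21 action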
#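 HeLa cells stably expressing CMV-driven firefly luciferase with a downstream miR-21 binding sequence, endogenously expressing miR-21, were treated with titrations (up to about 40uM final) for 48 hours at 37 degree Celsius. Luciferase luminescence was read after lysis.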
# * marks the source's active call; other numbers are inactive results; ? = inconclusive; / = no result given; [ ] = dose if it differs, or a comment. Shown are actives, neighbours in structure and some others; about 3.7% of the full set was active somewhere. Unless noted, the call rests on the fitted dose curve; in most records, active means well fitted curve in the direction sought with a large enough effect; inconclusive means small, poorly fitted or top-dose-only effect, or another doubt; inactive means no such curve, though single readings can be large; an effect the other way counts as inactive or inconclusive.
no. | smiles | ClpP mod | A549 viability | Nrf2 block | Nrf2 activator | p53 reactivator | miR-21 reporter
1 | O=C(C1CCC(Cn2c(=S)[nH]c3ccccc3c2=O)CC1)N1CCN(c2ccccn2)CC1 (stereo not given) | / | ? | 18µM* | 0% | -1% | 0%
2 | COc1ccccc1NS(=O)(=O)c1cc(NC(=O)Cc2n[nH]c(=O)c3ccccc23)ccc1Cl | -1% | -34% | 21µM* | 15% | -8% | /
3 | COc1cccc(C2c3c(ncn(-c4cccc(C#N)c4)c3=N)Oc3ccc4ccccc4c32)c1 (stereo not given) | / | -1% | ? | / | / | /
4 | COc1nc(N/N=C/c2cc3c(cc2Br)OCO3)nc(N2CCOCC2)n1 | -25% | 13% | 16µM* | 2% | 22% | -12%
5 | Brc1cc2c(cc1/C=N/Nc1nc(N3CCCCC3)nc(N3CCCCC3)n1)OCO2 | / | / | / | / | 5% | 0%
6 | Cc1ccc(S(=O)(=O)N2[C@@H](CO)CO[C@H]2CC(=O)c2ccccc2)cc1 | 2% | / | / | / | / | /
7 | Cc1c(C#N)c(O)n(CCO)c(=O)c1N=Nc1ccc(S(N)(=O)=O)cc1 | 1% | 15µM* | -18% | 0% | -3% | -5%
8 | CCCCn1cc(S(=O)(=O)c2cc(C)ccc2C)c(=O)c2cc(F)c(N3CCC(C)CC3)cc21 | -9% | -4% | 1% | 0% | / | 0%
9 | CN(C)CCCN(Cc1ccccc1)C(=S)Nc1cccc(C(F)(F)F)c1 | 1% | 19% | 4% | -1%[9.22 µM] | -7% | -7%
10 | CCCN(Cc1ccccc1)C(=S)Nc1cccc(C(F)(F)F)c1 | 0% | 2% | 21µM* | 3% | 3% | 3%
11 | Cc1ccc(C(=O)N/N=C\c2ccc(-c3ccc(Cl)c(Cl)c3)o2)cn1 | / | -17% | 18µM* | -3% | -8% | -2%
12 | C(=N\Nc1nc2ccccc2[nH]1)/c1c[nH]c2ccccc12 | 0% | 0% | ? | ? | 25µM* | 23%
13 | O=[N+]([O-])c1ccccc1N/N=C/c1c[nH]c2ccccc12 | 3% | -27% | ? | 3.5µM* | 14% | -50%
14 | C(=C\c1ccccc1)/C=N/Nc1nc2ccccc2[nH]1 | -4% | ? | ? | 4% | 8.9µM* | -26%
15 | COc1cc2nc(N3CCOCC3)nc(NC(C)C)c2cc1OC | 3% | / | / | / | / | /
16 | COC(=O)C1=CN(C)C=C(C(=O)OC)C1c1ccsc1 | 7.9µM* | 9% | 1% | 0% | -17% | -1%
17 | CCC(C)NC(=O)c1ccccc1NC(=O)C1CCN(S(=O)(=O)Cc2ccccc2)CC1 (stereo not given) | -16% | 2% | -22% | 0% | / | 0%
18 | Cc1cc(C)n(-c2ccc(C(=O)Nc3cccnc3Cl)cc2)n1 | -1% | -9% | ? | 0% | -2% | -10%
19 | Cc1cc(C)n(-c2ccc(C(=O)Nc3cc(S(=O)(=O)N(C)C)ccc3Cl)cc2)n1 | -15% | 1% | 18µM* | -1% | -18% | 13%
20 | CCOC(=O)CNC(=O)N1CCCN(S(=O)(=O)c2ccc3c(ccn3CC)c2)CC1 | -8% | 13% | / | -2% | / | 1%
21 | CCOc1cc(C=C(C(=O)OC)C(=O)OC)ccc1OCc1ccc([N+](=O)[O-])cc1 | 12% | ? | 18µM* | -3% | -22% | ?
22 | CCOc1cc(/C=N/O)ccc1OCc1ccc([N+](=O)[O-])cc1 | 1% | 16% | 15% | 1% | 3% | -42%
23 | COc1ccc(C2/C=C\CN(C(=O)Nc3ccccc3)CC(=O)N2Cc2ccc(F)cc2)cc1 (stereo not given) | 0% | -1% | -9% | 0% | -2% | 5%
24 | COc1ccc(C2/C=C\CN(C(=O)Nc3ccc(C(F)(F)F)cc3)CC(=O)N2Cc2ccc(F)cc2)cc1 (stereo not given) | -1% | -4% | 23µM* | 0% | 10% | ?
25 | CCCCC(=O)N1C/C=C\C(c2ccc(OC)cc2)N(Cc2ccc(F)cc2)C(=O)C1Cc1ccccc1 (stereo not given) | / | -21% | 23µM* | / | / | /
26 | COc1ccc(NC(=O)CSC2=C(C#N)C(c3ccco3)C(C(=O)Nc3nc4ccccc4s3)=C(C)N2)cc1 (stereo not given) | 22µM* | ? | ? | 1% | / | /
27 | C=CCOC(=O)C1=C(C)NC(SCC)=C(C#N)C1c1ccc(Cl)cc1 (stereo not given) | -25% | ? | 21µM* | 0% | -32% | 18%
28 | C=CCOC(=O)C1=C(C)NC(SCC(=O)Nc2ccc(C)c(Cl)c2)=C(C#N)C1c1ccco1 (stereo not given) | 1% | -23% | 6.5µM* | 3% | 4% | 9%
29 | COc1ccc2cc(S(=O)(=O)c3ccccc3F)c(=O)oc2c1 | 5% | -9% | 10% | ? | / | 2%
30 | COc1cc(C2CC(=O)N(c3ccc(C)c(Cl)c3)C3=C2C(=O)OC3)cc(OC)c1OC (stereo not given) | -1% | 1% | 15% | -1% | / | -1%
31 | O=C(C[N+]1(CC(O)c2ccccc2)CCCCC1)c1ccccc1 (stereo not given) | -2% | / | / | / | / | /
32 | Cc1cn(C)c(CC(=O)Nc2cccc(Cl)c2C)c1C(=O)O | 1% | 10% | / | 2% | / | 0%
33 | CCOC(=O)c1ccccc1NC(=O)COC(=O)CSCC(=O)Nc1cc(C)on1 | 0% | 4% | 1% | 0% | 7% | /
34 | Cc1cc(NC(=O)COC(=O)c2ccccc2NCCO)no1 | 16µM* | -5% | 3% | 3% | 13% | /
35 | Cc1ccc(Sc2ccc(N3CCCC(C(=O)Nc4ccc(Br)cc4)C3)nn2)cc1 (stereo not given) | ? | -9% | ? | 0% | / | 11%
36 | O=S(=O)(O)c1ccc(N=Nc2ccccc2)cc1 | / | -13% | 2% | 2% | 10% | -3%
37 | O=c1ccc(N=Nc2ccccc2)ccc1O | / | 16µM* | ? | 22% | ? | 8%
38 | CC(Oc1ccc(F)cc1)c1ccnc2nc(/N=C/N(C)C)nn12 (stereo not given) | / | -1% | -3% | 3% | 4% | -8%
39 | COc1cccc(OC(C)c2ccnc3nc(/N=C/N(C)C)nn23)c1 (stereo not given) | 32µM* | 15% | 2% | 4% | -9% | -19%
40 | Cc1cccc(OC(C)c2ccnc3nc(/N=C/N(C)C)nn23)c1 (stereo not given) | 28µM* | -4% | 5% | 2% | -12% | -17%
41 | CC(Oc1ccc(C(C)(C)C)cc1)c1ccnc2nc(/N=C/N(C)C)nn12 (stereo not given) | 28µM* | 0% | / | 1% | -10% | -34%

# 6 records drawn at random from the list so far, as already listed:
no. | smiles | ClpP mod | A549 viability | Nrf2 block | Nrf2 activator | p53 reactivator | miR-21 reporter
37 | O=c1ccc(N=Nc2ccccc2)ccc1O | / | 16µM* | ? | 22% | ? | 8%
35 | Cc1ccc(Sc2ccc(N3CCCC(C(=O)Nc4ccc(Br)cc4)C3)nn2)cc1 (stereo not given) | ? | -9% | ? | 0% | / | 11%
41 | CC(Oc1ccc(C(C)(C)C)cc1)c1ccnc2nc(/N=C/N(C)C)nn12 (stereo not given) | 28µM* | 0% | / | 1% | -10% | -34%
38 | CC(Oc1ccc(F)cc1)c1ccnc2nc(/N=C/N(C)C)nn12 (stereo not given) | / | -1% | -3% | 3% | 4% | -8%
39 | COc1cccc(OC(C)c2ccnc3nc(/N=C/N(C)C)nn23)c1 (stereo not given) | 32µM* | 15% | 2% | 4% | -9% | -19%
34 | Cc1cc(NC(=O)COC(=O)c2ccccc2NCCO)no1 | 16µM* | -5% | 3% | 3% | 13% | /

# Screening results as filed in PubChem.
